These are literature values, as cited in patent publication US20260008048A1, “POLYSILOXANE-BASED DEVICES WITH REDUCED DRUG ABSORPTION CHARACTERISTICS” (THE JOHNS HOPKINS UNIVERSITY, priority 2022, published 2026).

In general, logP refers to a log measure of how a compound divides between an organic and an aqueous phase.

The conditions of the series: cited from earlier work.

Take Quinidine: the log partition coefficient (logP) is reported as 2.9.
